We go through 1 compound from article PMC10142028, “Influence of Molecular Structure and Physicochemical Properties of Immunosuppressive Drugs on Micelle Formulation Characteristics and Cutaneous Delivery” (Pharmaceutics, 2023).

The data set deals with Porcine ear skin.

Turning to `CO[C@H]1C[C@@H]2CC[C@@H](C)[C@@](O)(O2)C(=O)C(=O)N2CCCC[C@H]2C(=O)O[C@H]([C@H](C)C[C@@H]2CC[C@@H](O)[C@H](OC)C2)CC(=O)[C@H](C)/C=C(\C)[C@@H](O)[C@@H](OC)C(=O)[C@H](C)C[C@H](C)/C=C/C=C/C=C/1C` [SIR, sirolimus], the “Drug deposition in skin regions (comparison)” value was “large percentage of skin deposition in the dermis”.
